The list shows a part of the results, in another mix than the full data. Some results for these compounds are left out of this collection, so the calls shown say nothing about other tests. Calls of active or inactive are those of the source.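 Rule for the calls: active = calcium-response B-score plate-corrected more than 3 library SD below zero, starting fluorescence within 5 deviations, no agonist response on first addition; inactive = the rest.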
target: Mas-related G-protein coupled receptor member X1 (Homo sapiens) (UniProt Q96LB2); assay: blockade of BAM8-22-evoked MrgX1 calcium response – HEK293 cells, Fluo-4 calcium flux, primary screen (AID 588676); conditions: Fluo-4, BAM8-22 antagonism, at 10 µM; active compounds read low;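 for B-score: peak minus trough fluorescence over baseline after final BAM8-22 challenge near maximal dose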

The chains behind the UniProt entries cited, without tags or fusion partners.
UniProt Q96LB2, whole entry: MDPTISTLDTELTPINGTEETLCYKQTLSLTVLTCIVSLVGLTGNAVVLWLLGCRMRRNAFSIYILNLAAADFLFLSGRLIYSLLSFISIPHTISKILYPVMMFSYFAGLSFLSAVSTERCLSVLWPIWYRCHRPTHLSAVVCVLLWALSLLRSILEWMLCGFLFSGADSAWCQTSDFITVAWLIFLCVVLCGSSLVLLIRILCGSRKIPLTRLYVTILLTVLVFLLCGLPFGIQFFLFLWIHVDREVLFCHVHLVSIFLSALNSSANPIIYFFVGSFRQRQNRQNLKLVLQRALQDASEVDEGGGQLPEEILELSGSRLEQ

**Q.** `CN(C)C1(CNC(=O)c2ccc(Br)cc2)CCCCC1` was tested. Which outcome did it give?
**A.** The outcome was “inactive”.

**Q.** `COc1cc(C(=O)NCC2(N(C)C)CCCCC2)c([N+](=O)[O-])cc1OC` was tested. Which outcome did it give?
**A.** The outcome was “inactive”.

**Q.** Which outcome does the source give for `COc1ccc(Cl)cc1C(=O)NCC1(N(C)C)CCCCC1` here?
**A.** The outcome was “inactive”.

**Q.** With `COc1cccc(C(=O)NCC2(N3CCCCC3)CCCCC2)c1` as the compound, how does the outcome read?
**A.** Its outcome is “inactive”.

**Q.** `O=C(NCC1(N2CCCCC2)CCCCC1)c1cccc(Cl)c1` was tested. Which outcome did it give?
**A.** The outcome was “inactive”.

**Q.** `O=C(OC1CN2CCC1CC2)C(CO)(c1ccccc1)c1ccccc1` (stereo not given) was tested. Which outcome did it give?
**A.** The outcome was “inactive”.

**Q.** How did the outcome turn out when `COc1ccc(Br)c(C(=O)NCC2(N3CCCCC3)CCCCC2)c1` was run?
**A.** The outcome was “inactive”.

**Q.** How did the outcome turn out when `CN(C)c1cccc(C(=O)NCC2(N(C)C)CCCCC2)c1` was run?
**A.** Its outcome is “inactive”.

**Q.** How did the outcome turn out when `CC(C)Oc1ccc(C(=O)NCC2(N(C)C)CCCCC2)cc1` was run?
**A.** Its outcome is “inactive”.

**Q.** How did the outcome turn out when `O=C(NCC1(N2CCCCC2)CCCCC1)c1cc([N+](=O)[O-])ccc1Cl` was run?
**A.** Its outcome is “inactive”.

**Q.** With `CN1[C@@H]2CC[C@H]1CC(OC(=O)C(O)(c1ccccc1)c1ccccc1)C2` (stereo not given in full) as the compound, how does the outcome read?
**A.** Its outcome is “inactive”.

**Q.** How did the outcome turn out when `CC(C)N1C(=O)CC2(CCN(CCOC(=O)C(O)(c3ccccc3)c3ccccc3)CC2)C1=O` was run?
**A.** Its outcome is “inactive”.

**Q.** For `COc1cc(SC)ccc1C(=O)NCC1(N(C)C)CCCCC1`, which outcome is on record?
**A.** The outcome was “inactive”.

**Q.** With `CCCCC(CC)C(=O)N1CCN(C/C=C/c2ccccc2)CC1` (stereo not given) as the compound, how does the B-score read?
**A.** The B-score was active: -4.88.

**Q.** Which outcome does the source give for `CCN(CC)CC(C)C(C)OC(=O)C(O)(c1ccccc1)c1ccccc1` (stereo not given) here?
**A.** The outcome was “inactive”.

**Q.** Which outcome does the source give for `Cc1ccc(C(=O)NCC2(N3CCCCC3)CCCCC2)cc1` here?
**A.** Its outcome is “inactive”.

**Q.** How did the outcome turn out when `CN(C)C1CCCC1OC(=O)C(O)(c1ccccc1)c1ccccc1` (stereo not given) was run?
**A.** Its outcome is “inactive”.

**Q.** For `CN(C)c1ccc(C(=O)NCC2(N(C)C)CCCCC2)cc1`, which outcome is on record?
**A.** The outcome was “inactive”.

**Q.** `Cc1ccccc1C(=O)NCC1(N2CCCCC2)CCCCC1` was tested. Which outcome did it give?
**A.** Its outcome is “inactive”.

**Q.** With `O=C(NCC1(N2CCCCC2)CCCCC1)c1cc(F)c(F)cc1Cl` as the compound, how does the outcome read?
**A.** The outcome was “inactive”.

**Q.** Which outcome does the source give for `C=CCN1CCN(CCOC(=O)C(O)(c2ccccc2)c2ccccc2)CC1` here?
**A.** Its outcome is “inactive”.

**Q.** With `O=C(NCC1(N2CCCCC2)CCCCC1)c1cccc(Br)c1` as the compound, how does the outcome read?
**A.** Its outcome is “inactive”.

**Q.** With `Cc1cc(C(=O)NCC2(N3CCCCC3)CCCCC2)ccc1[N+](=O)[O-]` as the compound, how does the outcome read?
**A.** Its outcome is “inactive”.

**Q.** With `CCN1CCCC(OC(=O)C2(O)c3ccccc3C=Cc3ccccc32)C1` (stereo not given) as the compound, how does the outcome read?
**A.** The outcome was “inactive”.

**Q.** How did the outcome turn out when `COc1ccc(C(=O)NCC2(N(C)C)CCCCC2)cc1` was run?
**A.** Its outcome is “inactive”.

Reference: PubChem BioAssay AID588676 (Johns Hopkins Ion Channel Center, 2011)
